For the test, the target named is EZH2 within the PRC2 complex (Homo sapiens, UniProt Q15910). The test can be described thus: EZH2 methyltransferase scintillation proximity assay (SPA), PRC2 complex. In kind it is biochemical. Particulars: inhibition of methyltransferase activity, 3H-SAM, HeLa mononucleosome substrate, foregoing or an analogous assay.

Chains of the proteins cited; added tags and fusions are not shown.
UniProt Q15910, whole entry: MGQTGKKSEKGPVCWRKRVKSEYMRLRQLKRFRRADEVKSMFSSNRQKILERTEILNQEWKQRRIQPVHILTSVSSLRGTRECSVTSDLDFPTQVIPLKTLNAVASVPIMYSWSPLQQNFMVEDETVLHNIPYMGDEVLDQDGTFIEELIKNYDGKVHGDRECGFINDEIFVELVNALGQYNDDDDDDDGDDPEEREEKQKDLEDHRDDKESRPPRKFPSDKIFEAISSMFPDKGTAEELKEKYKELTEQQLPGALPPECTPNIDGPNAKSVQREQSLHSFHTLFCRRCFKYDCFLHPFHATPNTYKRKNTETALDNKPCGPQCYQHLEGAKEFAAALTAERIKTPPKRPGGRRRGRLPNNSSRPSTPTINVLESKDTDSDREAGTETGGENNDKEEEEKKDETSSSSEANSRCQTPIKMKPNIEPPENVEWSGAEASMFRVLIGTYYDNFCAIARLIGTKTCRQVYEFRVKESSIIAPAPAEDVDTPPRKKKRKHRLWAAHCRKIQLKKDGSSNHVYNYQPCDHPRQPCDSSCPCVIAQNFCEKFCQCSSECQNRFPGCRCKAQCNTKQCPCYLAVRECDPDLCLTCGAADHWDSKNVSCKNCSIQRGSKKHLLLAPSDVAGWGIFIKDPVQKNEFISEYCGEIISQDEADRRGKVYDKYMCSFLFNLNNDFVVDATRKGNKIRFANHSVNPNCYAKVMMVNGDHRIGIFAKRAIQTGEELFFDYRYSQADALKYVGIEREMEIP

On to “N-[(4,6-Dimethyl-2-oxo-1,2-dihydro-3-pyridinyl)methyl]-1-(1-methylethyl)-6-[6-(4-methyl-1-piperazinyl)-3-pyridinyl]-1H-pyrazolo[3,4-b]pyridine-4-carboxamide [Ex 82]”, for which the IC50 (commonly the concentration that inhibits the measured activity by half) was found to be 108 nM.

The record behind these values is patent publication US9073924B2 (dated 2015).
